In the library only some 16% were active in any assay of this set; here they are far more common.
TDP1 block: TDP1 (human) enzyme inhibition. recombinant TDP1, AlphaScreen DNA substrate cleavage. AID 485290. Potency, µM (series often up to 130 µM), for inactives: at the highest dose activity change, negative = inhibition, most hits filed as inhibitors. Q9NUW8. 0.28% of 350,000 active; further: potency means the concentration at half of the fitted maximal effect; on the % scale 0 is the no-effect control and ±100 the full control effect; nearly all actives have a fitted effect of over 40% in size
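Signal: AlphaScreen proximity between streptavidin donor and anti-FITC acceptor beads on intact substrate. Reaction: Tdp1 1 nM, substrate 15 nM final, 5 min RT after 15 min compound preincubation.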
TDP1 cell noCPT: qHTS for Inhibitors of human tyrosyl-DNA phosphodiesterase 1 (TDP1): qHTS in cells in absence of CPT. 15% of 420,000 active. Potency, µM (series often up to 46.2 µM), for the others: at the top dose activity change, negative = growth inhibition, most hits filed as inhibitors. DT40 Tdp1-/- hTDP1 cells, no CPT, ATP luminescence, 48 h; further: potency means the concentration at half of the fitted maximal effect; on the % scale 0 is the no-effect control and ±100 the full control effect; nearly all actives have a fitted effect of over 55% in size
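Growth of hTDP1-complemented DT40 Tdp1-knockout cells is measured by ATP luminescence after at least 48 hr compound exposure at 37 °C, with DMSO substituting for the 20 nM CPT used in the parallel screen.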
uPA surface inh: cell surface uPA generation inhibition | cell surface uPA generation assay, qHTS | Potency, µM (top dose mostly 38.3 µM), for inactives: at the highest dose activity change, negative = inhibition, actives largely listed as inhibitors | 0.31% of 330,000 active | AID 540303; active means well fitted inhibition curve with a large enough effect; inconclusive means small, poorly fitted or top-dose-only effect; inactive means no such curve, though single readings can be large or run the other way; tested in mouse RAW 264.7 cells; further: potency means the concentration at half of the fitted maximal effect; on the % scale 0 is the no-effect control and ±100 the full control effect; nearly all actives have a fitted effect of over 55% in size
miR-21 reporter: miR-21 reporter, rising signal | AID 2288 | HeLa miR-21 FLuc reporter, luciferase, 48 h | 340,000 tested, under 10 active | Potency, µM (doses to about 38.3 µM), for inactives: at the top dose reporter change, positive = more light; active = well fitted rising curve with a large enough effect; inconclusive = small, poorly fitted or top-dose-only effect; inactive = no such curve, though single readings can be large or run the other way;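 note: % of control where 0% means no effect; miR-21 action dims this reporter so a rising signal means less miR-21 action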
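Using DMEM plus 10% FBS, HeLa miR-21-FLuc cells are incubated with test compounds (final up to about 40uM) for 48 hours; firefly luciferase signal is then imaged following reagent-mediated lysis.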
TDP1 cell CPT: DT40-hTDP1 cell growth loss with CPT; chicken DT40 Tdp1-/-;hTDP1 cells + 20 nM CPT, ATP luminescence, 48 h; 12% of 420,000 active; Potency, µM (top dose mostly 46.2 µM), for inactives: top-dose activity change, negative = growth inhibition, usual class: inhibitors; AID 686979; further: potency means the concentration at half of the fitted maximal effect; on the % scale 0 is the no-effect control and ±100 the full control effect; nearly all actives have a fitted effect of over 55% in size
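Chicken DT40 Tdp1-/- cells complemented with human TDP1, 400 cells/well, exposed to compounds plus 20 nM camptothecin for at least 48 h at 37 C; viability read as ATP content by CellTiter-Glo luminescence.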
Numbers without * were called inactive. Unless noted, the call rests on the fitted dose curve; in most records, active means well fitted curve in the direction sought with a large enough effect; inconclusive means small, poorly fitted or top-dose-only effect, or another doubt; inactive means no such curve, though single readings can be large; an effect the other way counts as inactive or inconclusive.

What do the screens show for `COc1ccc(-c2nnn(CC(=O)N(Cc3ccc(F)cc3)C(C(=O)NC3CCCC3)c3ccc(F)cc3)n2)cc1` (centres undefined)?
TDP1 cell noCPT: inconclusive; uPA surface inh: -6.5%; TDP1 cell CPT: 20.6µM*

What do the screens show for `N[C@H](C(=O)O)[C@@H](O)c1ccc(O)c(O)c1`?
TDP1 cell noCPT: -10.6%; TDP1 cell CPT: inconclusive

What do the screens show for `Cc1ccc(C(OCCN(C)C)c2cccc(C(F)(F)F)c2)cc1` (centres undefined)?
TDP1 block: 1.9%; TDP1 cell noCPT: 23.1µM*; uPA surface inh: 3.3%; miR-21 reporter: -1.0%; TDP1 cell CPT: 23.1µM*

How did Cc1ccccc1C(=O)OC1CCN(C)CC1 do in these assays?
TDP1 cell noCPT: -3.6%; uPA surface inh: -1.4%; miR-21 reporter: -6.2%; TDP1 cell CPT: 1.5%

Results for NC(=O)NC(CCC(=O)O)C(=O)O (centres undefined) ?
TDP1 cell noCPT: -6.7%; uPA surface inh: 3.5%; TDP1 cell CPT: -4.2%

What do the screens show for `O=C1CCC(=O)N1c1ccc(NCCc2cccc(F)c2)c([N+](=O)[O-])c1`?
TDP1 block: 3.4%; TDP1 cell noCPT: 1.0%; uPA surface inh: -1.9%; miR-21 reporter: -3.4%; TDP1 cell CPT: 0.7%

Results for O=C1C2CC=CCC2C(=O)N1c1ccc(NCCc2cccc(F)c2)c([N+](=O)[O-])c1 (centres undefined) ?
TDP1 block: 6.8%; TDP1 cell noCPT: 11.6µM*; uPA surface inh: -2.4%; miR-21 reporter: 0.6%; TDP1 cell CPT: inconclusive

How did O=C(O)c1ccc(COc2ccccc2/C=C2\NC(=O)N(Cc3ccc(F)cc3)C2=O)cc1 do in these assays?
TDP1 block: -5.0%; TDP1 cell noCPT: inconclusive; uPA surface inh: -4.5%; miR-21 reporter: -4.5%; TDP1 cell CPT: 0.5%

Results for O=C(O)c1cccc(-n2cccc2/C=C2/NC(=O)N(c3ccc(Cl)cc3)C2=O)c1 ?
TDP1 block: 0.0398µM*; TDP1 cell noCPT: -8.6%; uPA surface inh: 2.5%; miR-21 reporter: -13.1%; TDP1 cell CPT: -23.6%

What do the screens show for `O=C(O)c1ccc(COc2ccccc2/C=C2/NC(=O)N(c3cccc(Cl)c3)C2=O)cc1`?
TDP1 block: 25.1µM*; TDP1 cell noCPT: -17.7%; uPA surface inh: 4.7%; miR-21 reporter: -13.2%; TDP1 cell CPT: -0.4%

Results for O=C(O)c1cccc(-n2cccc2/C=C2\SC(=O)N(Cc3ccccc3F)C2=O)c1 ?
TDP1 block: 8.91µM*; TDP1 cell noCPT: inconclusive; uPA surface inh: -4.7%; miR-21 reporter: -0.9%; TDP1 cell CPT: -25.7%

What do the screens show for `Cc1cc(Cl)nc2nc(Cl)ccc12`?
TDP1 cell noCPT: 5.62µM*; TDP1 cell CPT: inconclusive

Results for Cc1cc(Cl)nc2c(C(C)C)cccc12 ?
TDP1 block: 2.4%; TDP1 cell noCPT: inconclusive; uPA surface inh: -2.2%; miR-21 reporter: -0.4%; TDP1 cell CPT: inconclusive

Results for FC(F)(F)c1ccc(Sc2n[nH]c(C(F)(F)F)n2)nc1 ?
TDP1 block: 0.0%; TDP1 cell noCPT: 29.1µM*; uPA surface inh: 0.1%; miR-21 reporter: -1.0%; TDP1 cell CPT: inconclusive

What do the screens show for `CCOC(=O)C1CCN(c2c(C(=O)c3ccccc3)cnc3ccc(Cl)cc23)CC1`?
TDP1 cell noCPT: 18.4µM*; uPA surface inh: 6.7%; miR-21 reporter: 7.9%; TDP1 cell CPT: 23.1µM*

Results for CCc1ccc2ncc(C(=O)c3ccc(C)c(C)c3)c(N3CCC(C(N)=O)CC3)c2c1 ?
TDP1 block: 4.9%; TDP1 cell noCPT: 20.6µM*; miR-21 reporter: -8.3%; TDP1 cell CPT: 23.1µM*

How did CC(=O)N(/C=C1\SC(=S)N(c2ccccc2)C1=O)c1ccccc1 do in these assays?
TDP1 cell noCPT: -9.6%; uPA surface inh: -10.6%; miR-21 reporter: -16.6%; TDP1 cell CPT: -7.1%

What do the screens show for `O=C(Nc1cc2c(cc1C(=O)O)OCCCO2)c1ccc(C(F)(F)F)cc1`?
TDP1 cell noCPT: inconclusive; uPA surface inh: -6.9%; miR-21 reporter: -71.9%; TDP1 cell CPT: inconclusive

Results for CCc1nc2ccc(C(=O)N(C)Cc3ccccc3)cn2c1N(CC)CCN(C)C ?
TDP1 cell noCPT: 5.3%; TDP1 cell CPT: -3.7%

What do the screens show for `CCc1nc2ccc(C(=O)NCCc3ccccn3)cn2c1N(CC)Cc1cccc(Br)c1`?
TDP1 cell noCPT: 9.2µM*; TDP1 cell CPT: 8.2µM*

Results for CCc1nc2ccc(C(=O)NCCCN3CCCC3=O)cn2c1N(CC)Cc1cccc(Br)c1 ?
TDP1 cell noCPT: inconclusive; TDP1 cell CPT: 20.6µM*

How did CCc1nc2ccc(C(=O)NC(C)(C)C)cn2c1N(CC)Cc1cccc(Br)c1 do in these assays?
TDP1 cell noCPT: 16.4µM*; TDP1 cell CPT: 18.4µM*

How did CCc1nc2ccc(C(=O)NCCc3ccccn3)cn2c1N(CCC(C)C)CCN(C)C do in these assays?
TDP1 cell noCPT: inconclusive; TDP1 cell CPT: -22.8%

What do the screens show for `O=C(Nc1ccn(CCOC(=O)c2ccccc2)c(=O)n1)c1ccccc1`?
TDP1 cell noCPT: -29.3%; TDP1 cell CPT: -7.1%

What do the screens show for `O=C(CNCC1CCCO1)Nc1ccccc1N1CCCCCC1` (centres undefined)?
TDP1 block: 3.0%; TDP1 cell noCPT: inconclusive; uPA surface inh: -3.2%; miR-21 reporter: -9.7%; TDP1 cell CPT: -23.9%

What do the screens show for `COc1cccc([C@@H]2Oc3ccc(Br)cc3C(=O)[C@H]2OC(=O)Nc2cc(OC)c(OC)c(OC)c2)c1`?
TDP1 block: 6.2%

What do the screens show for `CC(=O)c1cccc(NC(=O)CSc2nnc(C(C)N(C)C)n2Cc2ccccc2)c1` (centres undefined)?
TDP1 block: 6.3%; TDP1 cell noCPT: 23.1µM*; uPA surface inh: 3.1%; miR-21 reporter: 0.6%; TDP1 cell CPT: inconclusive

Results for Cc1ccc2cccc(NC(=O)c3ccc(-c4cccc([N+](=O)[O-])c4)o3)c2n1 ?
TDP1 block: 1.9%; miR-21 reporter: -0.2%

How did CCN1/C(=C/C=C/c2oc3ccc(-c4ccccc4)cc3[n+]2CC)Oc2ccc(-c3ccccc3)cc21 do in these assays?
TDP1 block: 0.0%; TDP1 cell noCPT: 0.0731µM*; uPA surface inh: -15.0%; miR-21 reporter: inconclusive; TDP1 cell CPT: 0.0073µM*

Results for Cc1ccccc1NC(=O)c1ccc(Cl)c(NC(=O)c2ccncc2)c1 ?
TDP1 block: 1.3%; TDP1 cell noCPT: -15.9%; uPA surface inh: 2.5%; miR-21 reporter: -20.4%; TDP1 cell CPT: -4.9%

How did COc1ccc(S(=O)(=O)Nc2c(C)cc(C)cc2C)c2cccnc12 do in these assays?
TDP1 cell noCPT: -16.6%; uPA surface inh: -8.4%; miR-21 reporter: 0.0%; TDP1 cell CPT: -20.1%

Arranged by formula weight (lowest first): part of the list above.
How did COc1ccc(S(=O)(=O)Nc2c(C)cc(C)cc2C)c2cccnc12 do in these assays?
TDP1 cell noCPT: -16.6%; uPA surface inh: -8.4%; miR-21 reporter: 0.0%; TDP1 cell CPT: -20.1%

What do the screens show for `O=C(Nc1ccn(CCOC(=O)c2ccccc2)c(=O)n1)c1ccccc1`?
TDP1 cell noCPT: -29.3%; TDP1 cell CPT: -7.1%

What do the screens show for `CC(=O)c1cccc(NC(=O)CSc2nnc(C(C)N(C)C)n2Cc2ccccc2)c1` (centres undefined)?
TDP1 block: 6.3%; TDP1 cell noCPT: 23.1µM*; uPA surface inh: 3.1%; miR-21 reporter: 0.6%; TDP1 cell CPT: inconclusive
